Assay results as given in patent publication EP3262036B1, “THERAPEUTIC PYRIDAZINE COMPOUNDS AND USES THEREOF” (priority 2015, dated 2016).

Each compound was assayed against BRG1 (Homo sapiens, UniProt P51532) (assay: biochemical). Details: His-BRG1 (A1448-S1575) 4 nM, biotinylated ligand (Example 248) 40 nM; read-out: BRG1 HTRF IC50.
Format: binding

Point of comparison: C[C@H]1CN(c2cc(-c3ccccc3O)nnc2N)C[C@H](C)N1S(C)(=O)=O [Example 113, 2-(6-amino-5-((3S,5S)-3,5-dimethyl-4-(methylsulfonyl)piperazin-1-yl)pyridazin-3-yl)phenol], IC50 263 nM. Against it:
- Nc1nnc(-c2ccccc2O)cc1C(=O)N[C@@H]1C[C@H]1c1ccccc1 (relative stereo) [Example 235, 3-amino-6-(2-hydroxyphenyl)-N-(trans-2-phenylcyclopropyl)pyridazine-4-carboxamide] — within 1.5-fold, 214 nM
- C[C@H]1CC[C@@H](c2cc(-c3ccccc3O)nnc2N)CC1 (single isomer, unassigned) [Example 226] — 13-fold lower, 20.9 nM
- C[C@@H]1CN(c2cc(-c3ccccc3O)nnc2N)C[C@@H](C)N1S(C)(=O)=O [Example 114, 2-(6-amino-5-((3R,5R)-3,5-dimethyl-4-(methylsulfonyl)piperazin-1-yl)pyridazin-3-yl)phenol] — 5.1-fold lower, 51.5 nM
- Cn1ccc(CN2CCN(c3cc(-c4ccccc4O)nnc3N)CC2)n1 [Example 100, 2-[6-amino-5-[4-[(1-methylpyrazol-3-yl)methyl]piperazin-1-yl]pyridazin-3-yl]phenol] — 6.9-fold lower, 38 nM
- Nc1nnc(-c2ccccc2O)cc1[C@H]1CCCCO1 (single isomer, unassigned) [Example 240] — 4.1-fold lower, 64.9 nM
- C[C@H]1CN(c2cc(-c3ccccc3O)nnc2N)CCN1c1ccccc1 [Example 82, 2-(6-Amino-5-(3-methyl-4-phenylpiperazin-1-yl)pyridazin-3-yl)phenol] — 3.8-fold lower, 68.4 nM
- CC1CN(c2cc(-c3ccccc3O)nnc2N)CCN1C(=O)c1ccncn1 (single isomer, unassigned) [Example 154, (4-(3-amino-6-(2-hydroxyphenyl)pyridazin-4-yl)-2-methylpiperazin-1-yl)(pyrimidin-4-yl)methanone] — 5.3-fold lower, 49.6 nM
- Nc1nnc(-c2ccccc2O)cc1N1CC[C@]2(O)CCCC[C@@H]2C1 [Example 85, (trans-4a,8a)-2-(3-amino-6-(2-hydroxyphenyl)pyridazin-4-yl)decahydroisoquinolin-4a-ol] — 24-fold lower, 11 nM
- C[C@H]1CC[C@H](c2cc(-c3ccccc3O)nnc2N)CC1 (single isomer, unassigned) [Example 225, 2-(6-amino-5-((1,4-trans)-4-methylcyclohexyl)pyridazin-3-yl)phenol] — 14-fold lower, 19 nM
- C[C@@H]1CN(c2cc(-c3ccccc3O)nnc2N)CCN1c1ccccc1 [Example 83, 2-(6-Amino-5-(3-methyl-4-phenylpiperazin-1-yl)pyridazin-3-yl)phenol] — 9.5-fold lower, 27.6 nM
- Nc1nnc(-c2ccccc2O)cc1[C@@H]1CCCCO1 (single isomer, unassigned) [Example 241] — 2.2-fold lower, 119 nM
- 2-(6-amino-5-tetrahydropyran-2-yl-pyridazin-3-yl)phenol [Example 237] — 3.5-fold lower, 76.1 nM
- Nc1nnc(-c2ccccc2O)cc1[C@@H](O)[C@H](O)Cc1ccccc1 [Example 201] — within 1.5-fold, 312 nM
- CC1CN(c2cc(-c3ccccc3O)nnc2N)CCN1C(=O)c1ccncn1 (single isomer, unassigned) [Example 153, (4-(3-amino-6-(2-hydroxyphenyl)pyridazin-4-yl)-2-methylpiperazin-1-yl)(pyrimidin-4-yl)methanone] — within 1.5-fold, 202 nM
- NC(=O)c1ccc(N2C3CCC2CN(c2cc(-c4ccccc4O)nnc2N)C3)cn1 [Example 89, 5-(3-(3-amino-6-(2-hydroxyphenyl)pyridazin-4-yl)-3,8-diazabicyclo[3.2.1]octan-8-yl)picolinamide] — 5.1-fold lower, 51.7 nM
